Measurements from patent US20250101040A1.

Tested on: 22Rv1 cells
Experiment: In vitro cell proliferation inhibition assay 1 (CCK8)
Format: cell-based
Conditions: read-out: 22Rv1/IC50/μM, ATM mutated human prostate cancer cell 22Rv1, 120 hours

SMILES: Cc1n[nH]c(C)c1-c1cc(N2CC3CCC(C2)O3)nc2c(-c3ccn[nH]3)cnn12
- IC50: 0.59 µM
